By UniProt entry, the sequences of proteins in these tests, tags left out. Where a name states a change or a piece, a line headed by the entry shows the natural chain unless it says otherwise.
UniProt P34975: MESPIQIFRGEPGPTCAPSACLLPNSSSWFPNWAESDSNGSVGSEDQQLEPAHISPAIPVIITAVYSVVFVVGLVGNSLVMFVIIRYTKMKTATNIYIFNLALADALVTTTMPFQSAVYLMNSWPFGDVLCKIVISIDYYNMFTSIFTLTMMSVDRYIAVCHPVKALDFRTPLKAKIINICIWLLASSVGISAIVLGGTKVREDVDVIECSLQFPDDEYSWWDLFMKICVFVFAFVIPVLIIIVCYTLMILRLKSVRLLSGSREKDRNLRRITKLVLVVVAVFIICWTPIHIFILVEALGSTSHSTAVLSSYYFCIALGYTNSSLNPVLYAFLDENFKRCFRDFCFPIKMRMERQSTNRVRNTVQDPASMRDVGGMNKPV

In ChEMBL document CHEMBL4000185, “Pyrimidine-Based Inhibitors of Dynamin I GTPase Activity: Competitive Inhibition at the Pleckstrin Homology Domain” (J Med Chem, 2017):

Target: Kappa-type opioid receptor (Rattus norvegicus, UniProt P34975)
Experiment: Displacement of [3H]U 69593 from rat recombinant kappa opioid receptor expressed in CHO cells after 60 mins by scintillation counting

CN(C(=O)Cc1ccc(Cl)c(Cl)c1)C1CCCCC1N1CCCC1 (configuration not stated)
IC50: 0.68 nM
Ki: 0.45 nM
